In one experiment the test system is mouse brains. The experiment in a line: In vivo M-mode photoacoustic imaging of mouse brain through open skull window with pharmacological manipulations. Particulars: mouse cortex, shortly after topically applying DPA dye; baseline without dye shows no activity.
Another experiment relates to HEK 293 cells. The experiment in a line: OR-PAM photoacoustic imaging of HEK 293 cells stained with DPA alone under different membrane resting potentials. The following applies: ~68 mV membrane resting potential change induced by extracellular K+ concentration change. The text has this:
HEK 293 cells stained with the hybrid DiO/DPA dye were imaged under different resting potentials. HEK 293 cell membrane resting potential was changed by changing the environmental potassium ion concentration. DPA dye alone may provide voltage-sensitive photoacoustic contrast. HEK 293 cells stained with DPA alone were imaged under different resting potentials. […] Additional dyes may be screened for an optimal optical excitation wavelength in the deep-penetration optical window (red or NIR), the results may be quantified using the voltage clamp technique as the gold standard, and optical pulse energy may be optimized for the detection of voltage-sensitive photoacoustic imaging probes. The selected dyes and optimized parameters may be applied in the in vivo mouse brain imaging experiment.
We conducted preliminary experiments again with HEK 293 cell culture preparation and a transmission mode optical resolution photoacoustic microscope, except that HEK 293 cells were stained only with DPA [1]. Similarly, we first imaged stained cells in DPBS using OR-PAM to acquire a baseline image. Then we changed the cell membrane resting potential by varying the cell's external environmental potassium (K^+) concentration.
The error bar represents one standard deviation. […]

This is a selection: effects in other tests are not listed, and their absence says nothing.

As to `O=[N+]([O-])c1cc([N+](=O)[O-])c(Nc2c([N+](=O)[O-])cc([N+](=O)[O-])cc2[N+](=O)[O-])c([N+](=O)[O-])c1`, the “PA signal (M-mode) after dye application” value with mouse brains is given as “intermittent low-amplitude PA signal consistent with isolated spontaneous neural activity”. In the experiment on HEK 293 cells, this compound returned a PA signal change of 200%.
